Molecular target: PD-1/PD-L1 (Homo sapiens, UniProt Q9NZQ7)
Experiment: PD-1/PD-L1 TR-FRET assay
Format: binding

CCCC[C@H]1C(=O)N(C)[C@@H](CCCC)C(=O)N[C@@H](CCCNC(=N)N)C(=O)N[C@H](C(=O)NCC(N)=O)CSCC(=O)N[C@@H](Cc2ccccc2)C(=O)N(C)[C@@H](C)C(=O)N[C@@H](CC(N)=O)C(=O)N2CCC[C@H]2C(=O)N[C@@H](Cc2cnc[nH]2)C(=O)N[C@@H](CC(C)C)C(=O)N[C@@H](CO)C(=O)N[C@@H](Cc2c[nH]c3ccccc23)C(=O)N[C@@H](CO)C(=O)N[C@@H](Cc2c[nH]c3ccccc23)C(=O)N1C [Compound 1]
IC50: 46.2 nM

— paper PMC9036676 (RSC Advances, 2021)
